Assays:
[1] = tested on: isolated right ventricular papillary muscle of the rabbit; experiment: Cardiotoxic effect: effective refractory period (ERP) in vitro
Protocol: The cardiotoxic effect was determined in isolated right ventricular papillary muscle of the rabbit in vitro.
The modified method of Hackett et al., 1990 was used (Hacket, A. M., Mc Donald S. J., P., Schweingruber, F. and Gartwaite, S. M.: Simple in vitro method to characterize antiarrhythmic agents J. Pharmacol. Methods 23, 107–116, 1990).
The effective refractory period (ERP) was measured in isolated right ventricular papillary muscle of the rabbit in vitro.
The contractions of papillary muscle preparations obtained from New Zealand rabbits weighing 2.5–3.2 kg were evaluated. The contractions (isometrically paced at 1 Hz) were recorded by 4-channel Hugo Sachs apparatus. The effects of the test compounds or references were measured in 1 μM concentration.

male Wistar rats = experiment: Cataleptogenous effect (method of Morpurgo); format: in vivo, rat; details: minimum effective dosis inducing catalepsy
Source text: The cataleptogenous effect was studied according to the method of Morpurgo [Morpurgo, C., Arch. Int. Pharmacodyn., 137, 84 ([…])]. Male Wistar rats of 220 to 240 g body weight have been used for the examinations. The fore-feet of the rats were placed on a gum stopper, one by one, and it was observed how the animal tolerated the unusual posture. The normal (non-cataleptic) animal removes the foot from the stopper during the measuring time of 10 seconds. If the animal keeps the foot on the stopper during the measuring time, this stiff state accompanied by myotonia is evaluated as catalepsy.

Cc1nc2n(c(=O)c1CCN1CCC(c3noc4cc(F)ccc34)CC1)CCCC2 [risperidone, 3-{2-[-4-(6-fluoro-1,2-benzisoxazole-3-yl)-piperidinyl]ethyl}-6,7,8,9-tetrahydro-2-methyl-4H-pyrido[1,2-a]pyrimidine-4-one, reference compound]
cardiotoxic effect (significant prolongation of ERP) ([1]; 1 μM concentration): considerable and significant cardiotoxic potential
% change of ERP (1 μM) ([1]; 1 μM, papillary muscle paced at 1 Hz, vs. baseline): 34.8 ± 4.8 %
MED in mg/kg po. (male Wistar rats): 1 mg/kg

Source: patent US7098210B2, “2h-pyridazine-3-one derivatives, pharmaceutical compositions containing the same and a process for the preparation of the active ingredient” (Egis Gyógyszergyár Rt., priority 2001, dated 2006)
